Membrane permeability of cyclic peptides

Collected by the curators of CycPeptMPDB (Li et al. 2023) from Ramalho et al. 2018, doi:10.1021/acs.jnatprod.8b00447.

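The data file gives no further conditions (lipid, pH, time, direction or concentration), and values from different papers need not be comparable. Other peptides of the study may be missing here. Entries at the database's floor value (log10 P of -10) are not listed.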

PAMPA measures passive passage through an artificial lipid membrane. P is given in units of 10^-6 cm/s (from log10 values with two decimals); larger means faster passage.

SMILES	PAMPA (10^-6 cm/s)
CC[C@H](C)[C@@H]1NC(=O)[C@H]([C@@H](C)CC)N(C)C(=O)[C@H](CO)NC(=O)CN(C)C(=O)[C@H](CC(C)C)N(C)C(=O)[C@H]([C@@H](C)CC)NC(=O)CNC(=O)[C@H](CC(C)C)NC1=O	0.22